Results as given in patent US12533353B2, “Methods of treatment of cancer comprising CDC7 inhibitors” (CARNA BIOSCIENCES, INC., priority 2018, dated 2026).

Experiments:
COLO-205 cells = assay: Co-treatment combination screen, synergy score, ATPlite; format: cell-based, human; conditions: simultaneous combination treatment, 72 hours
Experimental: (§1) The combination screen was performed using the co-treatment dosing schedule for SRA141 and the partner compound. Both enhancee (SRA141) and enhancer (partner compound) were added at time zero (0 h). Cells were exposed to SRA141 and the enhancer for the entire 72-hour treatment time. All data points were collected via automated processes and were subject to quality control and analyzed using proprietary software.
(§2) The Growth Inhibition (GI) was utilized as a measure of cell growth. GI percentages are calculated by applying the following test and equation: […]
(§3) This formula is derived from the Growth Inhibition calculation used in the National Cancer Institute's NCI-60 high throughput screen. […] These GI calculations were used in all single agent and combination data analysis for the combination screen.
(§4) To measure combination effects in excess of Loewe additivity, a scalar measure was used to characterize the strength of synergistic interaction termed the Synergy Score. The Synergy Score is calculated as: Synergy Score=log fX log fYΣ max(0,Idata)(Idata−ILoewe)
(§5) The fractional inhibition for each component agent and combination point in the matrix is calculated relative to the median of all vehicle-treated control wells. […]

MOLM-13 cells = assay: as above; format: cell-based, human; conditions: simultaneous combination treatment, 72 hours
Experimental: as §1, §2, §3, §4, §5

Row | Structure (SMILES) | synergy with SRA141 (COLO-205 cells) | synergy with SRA141 (MOLM-13 cells)
1 | CN(Cc1cnc2nc(N)nc(N)c2n1)c1ccc(C(=O)N[C@@H](CCC(=O)O)C(=O)O)cc1 [methotrexate] | Strong synergies | –
2 | CC1=C(/C=C/C(C)=C/C=C/C(C)=C/C(=O)O)C(C)(C)CCC1 [Tretinoin] | – | strong synergies
